Measurements taken from PubChem BioAssay AID1656 (Sanford-Burnham Center for Chemical Genomics, 2009).
The entries are a selection whose mix differs from that of the whole data set. Calls of active or inactive are those of the source.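 How the source made its calls: active means lipid droplet intensity inhibited by at least 50%, with more than 500 cells counted; inconclusive means wells with under 300 cells, treated as cytotoxic; inactive means the rest.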

Assay: oleate-induced lipid droplet accumulation in AML12 cells – imaging, high-throughput imaging, BODIPY stain, primary screen (AID 1656)
Conditions: AML12 mouse hepatocytes, oleate lipid droplets, at 6.5 µM, active compounds read high

| SMILES | inhibition |
| --- | --- |
| O=C(NC(Sc1ccncn1)C(Cl)(Cl)Cl)c1ccccc1 (stereo not drawn) | inactive: -38.2% |
| Nc1cc(N)c2nonc2c1[N+](=O)[O-] | inactive: 16% |
| O=[N+]([O-])c1cc([N+](=O)[O-])c(Nc2ccccn2)c([N+](=O)[O-])c1 | inactive: -25.3% |
| CP(=O)(Nc1ccccn1)Oc1ccccc1 (stereo not drawn) | inactive: -40.8% |
| COc1ccccc1OP(C)(=O)Nc1ccc(Br)cc1 (stereo not drawn) | inactive: 1.2% |
| Cc1ccc(N/C(=N/P(=O)(N2CCOCC2)N2CCOCC2)N2CCOCC2)cc1 | inactive: 3.8% |
| NC(=O)c1cc([N+](=O)[O-])cc([N+](=O)[O-])c1N | inactive: -7.6% |
| CN1CCCC(OC(=O)C(c2ccccc2)c2ccccc2)C1 (stereo not drawn) | inactive: -15.3% |
| Clc1ccc(Cl)c(NC2=NCC(CBr)S2)c1 (stereo not drawn) | inactive: 7.6% |
| CN(C)CCOC(=O)C(O)(c1ccccc1)C1CCCC1 (stereo not drawn) | inactive: -2.1% |
| COc1ccccc1OP(=O)(Nc1ccc(C)cn1)Oc1ccccc1OC | inactive: -9.9% |
| COc1ccc(OP(C)(=O)Nc2ccccn2)cc1 (stereo not drawn) | inactive: -1.5% |
| Cc1ccc(OP(=O)(Nc2nccs2)Oc2ccc(C)cc2)cc1 | inactive: 2.4% |
| CCN(/C(=N/P(=O)(N1CCOCC1)N1CCOCC1)N1CCOCC1)c1ccc(OC)cc1 | inactive: -6.1% |
| COc1ccccc1OP(C)(=O)Nc1ccccc1Br (stereo not drawn) | inactive: -2.5% |
| CC(C)(C)c1ccc(OP(C)(=O)O)cc1 | inactive: 5.9% |
| Nc1ccc([As](=O)(O)c2ccc(N)cc2)cc1 | inactive: 6.9% |
| C[N+]1=C2C=CC=CC=C2SC12C([N+](=O)[O-])=CC([N+](=O)[O-])=C[C-]2[N+](=O)[O-] (stereo not drawn) | inactive: 1.9% |
| CN(C)C(=O)c1c([N+](=O)[O-])cc([N+](=O)[O-])cc1[N+](=O)[O-] | inactive: -3.6% |
| CC(C)=N/N=C(\N)N[N+](=O)[O-] | inactive: -2.9% |
| CN(C)C(=O)OCCc1n(C)cc[n+]1C | inactive: 17.4% |
| COc1ccc(C2=NCC(CBr)S2)cc1 (stereo not drawn) | inactive: -2.3% |
| COc1ccc(OP(C)(=O)Nc2ccc(Br)cc2)cc1 (stereo not drawn) | inactive: 13.9% |
| Cc1ccc(NP(=O)(Oc2ccccc2)Oc2ccccc2)nc1 | inactive: 6.3% |
| CCc1ccc(OP(C)(=O)Nc2cccnc2)cc1 (stereo not drawn) | inactive: -17.4% |
| O=[N+]([O-])c1cc([N+](=O)[O-])c(CCNc2ccccc2)c([N+](=O)[O-])c1 | inactive: 1.6% |
| O=[N+]([O-])c1cccc2n[nH]nc12 | inactive: -1.6% |
| O=C(OCCCN1CCCC1)C(O)(c1ccccc1)C1CCCCC1 (stereo not drawn) | inactive: 22.1% |
